Test results reported in patent US12281329B2, “Compositions and methods for immune cell modulation in adoptive immunotherapies” (Fate Therapeutics, Inc., priority 2016, dated 2025).

Tested on: T cells
Assay: In vitro T cell culture compound screen, flow cytometry for CCR7+CD62L+ cells
Assay type: cell-based, human
Conditions: in both viable CD4+ population and viable CD8+ population
From the text: In Vitro T Cell Culture. Fresh leukopaks (AllCells, Alameda, CA) were obtained from healthy donors, from which T cells were negatively selected using the EasySep Human T cell Enrichment Kit (Stem Cell Technologies, Vancouver, Canada). The freshly isolated T cells were aliquoted and cryopreserved. On the day the screens were initiated, T cells were thawed and washed into X-Vivo 15 with 5% human AB serum, IL-2, pen/strep, and additional supplements. Cells were dispensed into flat-bottom 384-well plates at 5×10^5 cells/ml with anti-CD3/Anti-CD28 dynabeads (ThermoFisher, Waltham, MA) at a 3:1 bead-to-cell ratio. […]
Flow Cytometry. […] Data acquisition was performed on a BD Fortessa X-20 (BD Biosciences) and data were analyzed using Treestar software (FlowJo, Ashland, OR) and Spotfire (Tibco, Boston, MA).
These cells are characterized by expression of CCR7 and CD62L. Therefore, cells co-expressing both of these identifying markers were evaluated. Within the viable CD4+ population and viable CD8+ population, the percent of cells co-expressing CCR7 and CD62L was determined. […]
The number of events in each of these gates relative to the number of absolute counting beads in each sample was calculated, defining a relative measure of the absolute number of naïve, stem cell memory, or central memory T cells within the CD4+ and/or CD8+ populations. […]

Oc1cccc(-c2nc(N3CCOCC3)c3oc4ncccc4c3n2)c1 [PI-103]
number or ratio of cells co-expressing CCR7 and CD62L: increased
